Literature values in patent US20110152382A1, “Composition of molecular elements for phosphorylase kinase inhibition” (priority 2009, published 2011).

Experiments:
[1] = metabolites of oral curcumin

In the case of curcumin glucuronate, the “absorption of metabolites into the blood stream” value [1] is listed as “absorbed into the blood stream” and the water solubility is listed as “water soluble”.
